From patent US12162867B2, “Inhibitors of RNA helicase DHX9 and uses thereof” (ACCENT THERAPEUTICS, INC., priority 2022, dated 2024) come the findings set out here.

Amino acid sequences for entries named in this document (tags omitted).
UniProt Q08211, whole entry: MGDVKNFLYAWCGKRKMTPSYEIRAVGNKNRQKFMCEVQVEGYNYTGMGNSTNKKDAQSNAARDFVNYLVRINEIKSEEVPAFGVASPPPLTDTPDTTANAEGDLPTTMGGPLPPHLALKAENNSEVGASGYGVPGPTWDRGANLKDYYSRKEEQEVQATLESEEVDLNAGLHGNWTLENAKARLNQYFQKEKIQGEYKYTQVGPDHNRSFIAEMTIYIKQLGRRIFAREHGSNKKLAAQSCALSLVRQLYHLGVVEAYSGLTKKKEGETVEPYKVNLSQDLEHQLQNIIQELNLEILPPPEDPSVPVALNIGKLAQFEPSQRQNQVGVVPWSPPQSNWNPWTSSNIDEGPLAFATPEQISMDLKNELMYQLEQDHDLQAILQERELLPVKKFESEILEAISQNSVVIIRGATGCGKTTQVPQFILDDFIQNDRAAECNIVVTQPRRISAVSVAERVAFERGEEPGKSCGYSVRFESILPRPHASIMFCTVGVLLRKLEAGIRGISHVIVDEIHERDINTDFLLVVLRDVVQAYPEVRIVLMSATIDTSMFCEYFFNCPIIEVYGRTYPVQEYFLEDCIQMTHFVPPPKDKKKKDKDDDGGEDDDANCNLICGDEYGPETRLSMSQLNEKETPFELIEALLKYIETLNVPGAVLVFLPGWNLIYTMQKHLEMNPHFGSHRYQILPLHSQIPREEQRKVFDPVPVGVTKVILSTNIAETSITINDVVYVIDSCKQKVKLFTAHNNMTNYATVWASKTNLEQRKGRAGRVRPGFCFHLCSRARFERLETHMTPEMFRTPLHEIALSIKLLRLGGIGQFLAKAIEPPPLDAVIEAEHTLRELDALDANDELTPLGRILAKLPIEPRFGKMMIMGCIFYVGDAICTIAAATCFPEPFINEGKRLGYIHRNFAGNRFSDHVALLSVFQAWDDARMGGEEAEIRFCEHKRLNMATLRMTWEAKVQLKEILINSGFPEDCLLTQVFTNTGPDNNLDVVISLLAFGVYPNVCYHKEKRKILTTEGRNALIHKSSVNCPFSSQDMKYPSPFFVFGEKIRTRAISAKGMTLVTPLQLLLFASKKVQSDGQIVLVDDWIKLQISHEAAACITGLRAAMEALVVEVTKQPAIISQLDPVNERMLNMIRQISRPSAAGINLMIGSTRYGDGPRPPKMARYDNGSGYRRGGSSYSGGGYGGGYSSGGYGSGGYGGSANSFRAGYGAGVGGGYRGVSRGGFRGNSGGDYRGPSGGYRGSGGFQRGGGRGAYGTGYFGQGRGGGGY

The structures appear in SMILES notation. Like-named read-outs stand apart in the source and are kept apart here.

Experiment [1] concerns the target T1, Human recombinant DHX9 protein (Homo sapiens, UniProt Q08211).
T1 construct: purchased Viva
The experiment is described as follows: DHX9 ATPase assay (ADP-Glo). It counts as biochemical.

The next experiment concerns HCT116 cells. The experiment is described as follows: DHX9 cellular proliferation assay (CellTiter-Glo), HCT116. It counts as cell-based. As to conditions: Homo sapiens, HCT-116; HCT116, CRC-MSI; assay performed at Accent Therapeutics, Inc.; read-out: *HCT116 Anti-proliferative IC50. Background: In ATP-based viability assays light output follows the ATP content of the culture.

The next experiment concerns LS411N cells. The experiment is described as follows: DHX9 cellular proliferation assay (CellTiter-Glo), LS411N (CRC-MSI). Conditions: Homo sapiens, LS-411N. It counts as cell-based.
A further experiment deals with Colo205 cells. Kind of experiment: cells. Conditions: Homo sapiens, COLO 205, read-out: *Colo205 Anti-proliferation IC50 (μM).
The test system of experiment [2] is circBRIP1 in HCT116 cells. Kind of experiment: DHX9 circBRIP1 cellular target engagement SYBR Green assay (qPCR). Conditions: Homo sapiens. It counts as cell-based. Background: Quantitative PCR measures a nucleic acid by following its amplification.
A further experiment deals with NCI-H747 cells. The experiment is described as follows: DHX9 cellular proliferation assay (CellTiter-Glo), NCI-H747 (CRC-MSS). It counts as cell-based. As to conditions: Homo sapiens.
Experiment [3] relates to circBRIP1 in HCT116 cells. Kind of experiment: DHX9 circBRIP1 cellular target engagement TaqMan Multiplex assay (qPCR). It counts as cell-based. Conditions: Homo sapiens, HCT-116, read-out: DHX9 Cellular Target Engagement EC50 (μM).
Setting [4] is: LS411N, CRC-MSI-H, performed at Pharmaron, read-out: LS411N (CRC-MSI-H) Antiproliferative IC50.
Setting [5] is: HCT-116, circBRIP1, HCT116 cells, SyBr assay (marked ^+), read-out: DHX9 Cellular Target Engagement EC50.
[6] abbreviates: HCT-116, read-out: DHX9 Cellular Target Engagement EC50.
The mark [7] stands for this setting: NCI-H747, NCI-H747, CRC-MSS, performed at Pharmaron, read-out: H747 (CRC-MSS) Antiproliferative IC50.
The mark [8] stands for this setting: NCI-H747, read-out: H747 (CRC-MSS) Antiproliferative IC50.
[9] abbreviates: read-out: LS411N (CRC-MSI-H) Antiproliferative IC50.

On to `CS(=O)(=O)Nc1cc(Cl)cc(NC(=O)c2cnn([C@H]3CC[C@H](O)CC3)c2)c1` (single isomer, unassigned) [Example 154], for which the “DHX9 Biochemical Max Inhibition” value in experiment [1] worked out at 58.9%.
On to `CS(=O)(=O)Nc1cc(Br)cc(NC(=O)c2cc(-c3ccccc3)cs2)c1` [Example 15, N-(3-bromo-5-(methylsulfonamido)phenyl)-4-phenylthiophene-2-carboxamide], for which the IC50 stood at 1030 nM with HCT116 cells; 663 nM in the experiment with LS411N cells (setting [4]); 2570 nM in the experiment on LS411N cells (LS411N, CRC-MSI, assay performed at Accent Therapeutics, Inc., read-out: *LS411N Anti-proliferative Activity IC50); 10.6 µM with Colo205 cells.
For the compound `CS(=O)(=O)Nc1cc(Br)cc(NC(=O)c2cc(-c3ccccn3)cs2)c1` [Example 17, N-(3-bromo-5-(methylsulfonamido)phenyl)-4-(pyridin-2-yl)thiophene-2-carboxamide], in the experiment on Colo205 cells, the IC50 came out at 11.8 µM.
The term EC50 denotes the concentration at which the effect is half-maximal. As to `CS(=O)(=O)Nc1cc(Cl)cc(NC(=O)c2cnn(-c3ncccc3OCc3cccnc3)c2)c1` [Example 61, N-(3-chloro-5-(methylsulfonamido)phenyl)-1-(3-(pyridin-3-ylmethoxy)pyridin-2-yl)-1H-pyrazole-4-carboxamide], in experiment [2] (setting [5]), the EC50 stood at 1520 nM.
For `CS(=O)(=O)Nc1cc(Cl)cc(NC(=O)c2cnn(-c3ncccc3OC(F)(F)c3ccccc3)c2)c1` [Example 97, N-(3-chloro-5-(methylsulfonamido)phenyl)-1-(3-(difluoro(phenyl)methoxy)pyridin-2-yl)-1H-pyrazole-4-carboxamide], the EC50 in experiment [2] (setting [5]) was determined as 3160 nM.
As to `CS(=O)(=O)Nc1cc(Cl)cc(NC(=O)c2cc(C#N)n(-c3ccccn3)c2)c1` [Example 98, N-(3-chloro-5-(methylsulfonamido)phenyl)-5-cyano-1-(pyridin-2-yl)-1H-pyrrole-3-carboxamide], the EC50 in experiment [2] (setting [5]) came out at 1330 nM.
`CS(=O)(=O)Nc1cc(Cl)cc(NC(=O)c2cc(-c3ccccn3)ns2)c1` [Example 137, N-(3-chloro-5-(methylsulfonamido)phenyl)-3-(pyridin-2-yl)isothiazole-5-carboxamide]: in experiment [2] (setting [6]), the EC50 was determined as 3010 nM.
For `CS(=O)(=O)Nc1cc(Cl)cc(NC(=O)c2cnn([C@H]3CC[C@@H](O)CC3)c2)c1` [Example 151, N-(3-chloro-5-(methylsulfonamido)phenyl)-1-((1s,4s)-4-hydroxycyclohexyl)-1H-pyrazole-4-carboxamide], the “DHX9 Biochemical Max Inhibition” value in experiment [1] was found to be 58.9%. The IC50 in experiment [1] (inflection point of dose-response curve, read-out: DHX9 Biochemical Inflection Point) was found to be 179 nM.
Consider `CS(=O)(=O)Nc1cc(Cl)cc(NC(=O)c2cccc(-n3ccc(CO)n3)c2)c1` [Example 160, N-(3-chloro-5-(methylsulfonamido)phenyl)-3-(3-(hydroxymethyl)-1H-pyrazol-1-yl)benzamide], for which the 50% effective concentration (EC50) in experiment [2] (setting [5]) stood at 6940 nM. The IC50 with NCI-H747 cells (setting [7]) is > 10 µM; with LS411N cells (setting [4]), > 10000 nM.
Consider `CS(=O)(=O)Nc1cc(Cl)cc(NC(=O)c2cc(C(=O)N3CCNCC3)n(-c3ccccn3)c2)c1` [Example 165, N-(3-chloro-5-(methylsulfonamido)phenyl)-5-(piperazine-1-carbonyl)-1-(pyridin-2-yl)-1H-pyrrole-3-carboxamide], for which the EC50 in experiment [2] (setting [6]) is > 10000 nM.
Consider `CS(=O)(=O)Nc1cc(Cl)cc(NC(=O)c2cc(CO)n(-c3ccccn3)c2)c1` [Example 169, N-(3-chloro-5-(methylsulfonamido)phenyl)-5-(hydroxymethyl)-1-(pyridin-2-yl)-1H-pyrrole-3-carboxamide], for which the 50% effective concentration (EC50) in experiment [2] (setting [6]) was 189 nM. Besides, the IC50 is > 10 µM in the experiment with NCI-H747 cells (setting [8]) and 2170 nM in the experiment with LS411N cells (setting [9]).
The like results for `Cc1cc(C(=O)Nc2cc(Cl)cc(NS(C)(=O)=O)c2)cn1-c1ccccn1` [Example 170, N-(3-chloro-5-(methylsulfonamido)phenyl)-5-methyl-1-(pyridin-2-yl)-1H-pyrrole-3-carboxamide] were, in that order, 44.7 nM, > 10 µM and 122 nM.
For the compound `Cc1cc(C(=O)Nc2cc(Cl)cc(NS(C)(=O)=O)c2)cn1-c1ncccc1OCc1cncc(F)c1` [Example 175, N-(3-chloro-5-(methylsulfonamido)phenyl)-1-(3-((5-fluoropyridin-3-yl)methoxy)pyridin-2-yl)-5-methyl-1H-pyrrole-3-carboxamide], in experiment [2] (setting [5]), the EC50 is 44.5 nM. In addition, the IC50 is > 10 µM in the experiment with NCI-H747 cells (setting [7]) and 86.3 nM in the experiment on LS411N cells (setting [4]).
As to `CS(=O)(=O)Nc1cc(Cl)cc(NC(=O)c2cc(N3CCCC3=O)cs2)c1` [Example 176, N-(3-chloro-5-(methylsulfonamido)phenyl)-4-(2-oxopyrrolidin-1-yl)thiophene-2-carboxamide], in experiment [2] (setting [5]), the EC50 stood at 408 nM.
With `CC(C)N1CC(Oc2cnc(-c3cc(C(=O)Nc4cc(Cl)cc(NS(C)(=O)=O)c4)cn3C)c(F)c2)C1` [Example 634, N-(3-chloro-5-methanesulfonamidophenyl)-5-{3-fluoro-5-[(1-isopropylazetidin-3-yl)oxy]pyridin-2-yl}-1-methylpyrrole-3-carboxamide], the IC50 with NCI-H747 cells (setting [8]) was found to be 8.98 µM; in the experiment on LS411N cells (setting [9]), 24.7 nM. For the same compound, the EC50 in experiment [3] worked out at 0.0186 µM.
